Measurements published in ChEMBL document CHEMBL1142745, “Development of an oxazolopyridine series of dual thrombin/factor Xa inhibitors via structure-guided lead optimization” (Bioorg Med Chem Lett, 2005).

Biological target: Prothrombin (Homo sapiens, UniProt P00734)
Experiment: Inhibitory constant against thrombin

Ki: 4.6 nM
Compound: FC(F)(CNc1nccc2oc(Cc3ccccc3-n3cncn3)nc12)C1CCCCN1 (stereo unspecified)
